The list shows a part of the results, in another mix than the full data. Activity calls are given as the source filed them. No stated cut-off is given here; in the data, active means inhibition above about 50%; inactive means the rest.
target: Integrin alpha-4 (Homo sapiens) (UniProt P13612); assay: inhibition in human VLA-4 binding assay, primary screen, VLA-4 allosteric modulator project, MLPCN library, flow cytometry, VLA-4 expressing cells (AID 2557); conditions: ligand binding flow cytometry, stronger effect = higher value, about 7 µM as worked out from the volumes in the protocol

Sequences of proteins named here, by UniProt entry; tags and fusion partners are left off.
UniProt P13612, whole entry, looked up: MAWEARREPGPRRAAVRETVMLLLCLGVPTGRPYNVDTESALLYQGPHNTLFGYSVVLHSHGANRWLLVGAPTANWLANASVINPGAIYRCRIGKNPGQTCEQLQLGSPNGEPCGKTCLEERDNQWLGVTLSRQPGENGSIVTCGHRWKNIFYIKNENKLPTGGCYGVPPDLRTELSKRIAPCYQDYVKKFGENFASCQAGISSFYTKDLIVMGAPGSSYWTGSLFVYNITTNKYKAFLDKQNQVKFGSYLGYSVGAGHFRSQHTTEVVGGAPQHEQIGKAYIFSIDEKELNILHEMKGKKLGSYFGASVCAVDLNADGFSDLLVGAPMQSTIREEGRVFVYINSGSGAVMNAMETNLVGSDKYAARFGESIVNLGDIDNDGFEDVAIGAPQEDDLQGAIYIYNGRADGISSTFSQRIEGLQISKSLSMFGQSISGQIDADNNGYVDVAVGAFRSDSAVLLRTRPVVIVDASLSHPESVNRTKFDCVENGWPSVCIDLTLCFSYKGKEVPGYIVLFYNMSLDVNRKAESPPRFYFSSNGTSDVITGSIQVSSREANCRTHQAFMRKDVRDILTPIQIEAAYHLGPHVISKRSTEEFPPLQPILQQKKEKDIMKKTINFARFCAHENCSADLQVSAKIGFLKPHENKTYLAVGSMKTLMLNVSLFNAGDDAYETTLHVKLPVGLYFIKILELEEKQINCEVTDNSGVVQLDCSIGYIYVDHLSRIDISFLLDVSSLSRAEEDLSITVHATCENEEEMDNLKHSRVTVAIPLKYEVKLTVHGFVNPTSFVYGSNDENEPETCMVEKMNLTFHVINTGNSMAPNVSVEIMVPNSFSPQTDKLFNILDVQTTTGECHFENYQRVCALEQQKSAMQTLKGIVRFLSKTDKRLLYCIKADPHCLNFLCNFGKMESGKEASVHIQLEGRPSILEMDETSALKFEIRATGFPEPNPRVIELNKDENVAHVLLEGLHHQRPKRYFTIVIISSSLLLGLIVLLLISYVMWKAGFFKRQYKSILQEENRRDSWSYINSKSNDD

Compound | inhibition
CN(C(=O)Cc1ccccc1)[C@@H]1CC[C@]2(CCCO2)C[C@H]1N1CCCC1 | inactive: 18.8%
CCOP1(=S)c2c(C)nn(CCC#N)c2N=C(c2ccc(F)cc2)N1C (stereo not drawn) | inactive: 3.44%
N#CCCN(C(=O)COC(=O)C(O)(c1ccccc1)c1ccccc1)c1ccc(F)cc1 | inactive: 4.28%
CS(=O)(=O)c1cc([N+](=O)[O-])c2no[n+]([O-])c2c1 | inactive: -1.69%
O=P(Nc1nccs1)(Oc1ccccc1)Oc1ccccc1 | inactive: 7.69%
O=P(Nc1nccs1)(c1ccccc1)c1nc2ccccc2s1 (stereo not drawn) | inactive: 3.31%
CCOP1(=S)c2c(C)nn(CCC#N)c2N=C(c2ccccc2F)N1C (stereo not drawn) | inactive: 3.65%
O=C(O)COc1ccc([As](=O)(O)O)cc1[N+](=O)[O-] | inactive: 6.28%
Nc1ccccc1[As](=O)(O)c1ccccc1 | inactive: -17.7%
CCCOP(=S)(Nc1nc(N)cc(=O)[nH]1)OCCC | inactive: -11.6%
Nc1cccc2c([As](=O)(O)O)cccc12 | inactive: -12.6%
Cc1ccc(NCCc2c([N+](=O)[O-])cc([N+](=O)[O-])cc2[N+](=O)[O-])cc1 | inactive: 0%
CCOP(=O)(Nc1cccc2ccccc12)OCC | inactive: 0.3%
COc1cc(C2NCCC3(OCCO3)C2(C)C)cc(OC)c1OC (stereo not drawn) | inactive: 3.04%
CS(=O)(=O)c1ccc(Cl)c(NC(=O)COC(=O)C(O)(c2ccccc2)c2ccccc2)c1 | inactive: -1.87%
O=[As](O)(O)c1cccnc1 | inactive: -2.16%
COc1cc(C(=O)NCC2(N3CCOCC3)CCCCC2)cc(Cl)c1OC(C)C | inactive: 5.01%
O=C(OC1CN2CCC1CC2)c1ccc(Cl)cc1 (stereo not drawn) | inactive: 3.36%
Cc1cccc(OCC(=O)OC2CN3CCC2CC3)c1 (stereo not drawn) | inactive: -1.37%
O=[As](O)(c1cccc(O)c1)c1cccc(O)c1 | inactive: -3.86%
COc1ccc(N/C(=N/P(=O)(N2CCOCC2)N2CCOCC2)N2CCOCC2)cc1 | inactive: 3.97%
Cc1cc(=O)[nH]c(N[N+](=O)[O-])n1 | inactive: 6.78%
O=C(OC1CN2CCC1CC2)C12CC3CC(CC(C3)C1)C2 (stereo not drawn) | inactive: -7.67%
Cc1c2c(nc3ccccc13)SC(C(Cl)Cl)C2 (stereo not drawn) | inactive: 5.74%

Compound | inhibition
COc1cc(I)ccc1[As](=O)(O)O | inactive: 6.82%
COc1ccc2nc(NP(=O)(c3ccccc3)c3ccccc3)sc2c1 | inactive: -0.67%
CC(C)c1ccc(OP(=O)(Nc2ccccn2)Oc2ccccc2F)cc1 (stereo not drawn) | inactive: 17.8%
ClCCSc1nnc(-c2cccnc2)o1 | inactive: 0.72%
O=[N+]([O-])c1cc([N+](=O)[O-])c(-c2ccn[nH]2)s1 | inactive: -14.4%
CC(C)NC(=O)NP(=O)(Oc1ccccc1)Oc1ccccc1 | inactive: 12.2%
CCN(CC)C(=S)SC(NC=O)C(Cl)(Cl)Cl (stereo not drawn) | inactive: 6.93%
COc1cc(C(=O)NCC2(N3CCOCC3)CCCCC2)ccc1OCC(C)C | inactive: 9.65%
O=[As](O)(c1ccc(O)cc1)c1ccccc1O | inactive: -32.8%
C[As](=O)(O)c1cccc(C(=O)O)c1 | inactive: -10.1%
Cc1ccc2nc3c(c(C)c2c1)CC(C(Cl)Cl)S3 (stereo not drawn) | inactive: 31.9%
Cc1ccc(OP(=O)(Nc2ccc([N+](=O)[O-])cn2)Oc2ccc(C)cc2)cc1 | inactive: 6.01%
CCOC(=O)Nc1cccc([As](=O)(O)O)c1 | inactive: 5.24%
O=[N+]([O-])c1ccc(Nc2ccc(Oc3ccc([N+](=O)[O-])cc3[N+](=O)[O-])cc2)c([N+](=O)[O-])c1 | inactive: -6.29%
Cc1cc(SC(NC=O)C(Cl)(Cl)Cl)ncn1 (stereo not drawn) | inactive: 9.29%
O=P(Nc1ccccn1)(c1cccc2ccccc12)c1cccc2ccccc12 | inactive: 7.2%
CCOC(=O)Nc1ccc([As](=O)(O)O)c(O)c1 | inactive: -0.95%
Cc1cc(SC(NC(=O)c2ccccc2)C(Cl)(Cl)Cl)nc(C(C)C)n1 (stereo not drawn) | inactive: -5.62%
CCOC(=O)c1ccc(NC(=O)C(C)(CCl)SC)cc1 (stereo not drawn) | inactive: -1.74%
O=C(OC1CN2CCC1CC2)c1cccc([N+](=O)[O-])c1 (stereo not drawn) | inactive: 11.9%
CCC(C)N(CC(C)C)C(=S)SC(NC(C)=O)C(Cl)(Cl)Cl (stereo not drawn) | inactive: 6.88%
COP1(=S)c2c(C)nn(CCC#N)c2N=C(c2ccc(F)cc2)N1C (stereo not drawn) | inactive: -9.75%
O=C(Nc1ccncc1[N+](=O)[O-])c1ccc([N+](=O)[O-])cc1[N+](=O)[O-] | inactive: 34.7%
O=C(COc1ccccc1)OC1CN2CCC1CC2 (stereo not drawn) | inactive: -6.94%
